PubChem BioAssay AID624418 (National Center for Advancing Translational Sciences (NCATS), 2012)
The entries are a selection whose mix differs from that of the whole data set. Inconclusive results are not listed. Activity calls are given as the source filed them. Calls come from the whole dose curve; as a rule, active = well fitted inhibition curve with a large enough effect; inconclusive = small, poorly fitted or top-dose-only effect, or another doubt; inactive = no such curve, though single readings can be large or run the other way.

Assay: qHTS of GLP-1 Receptor Inverse Agonists: Cytotox Screen;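 note: loss of luciferase light is scored as toxicity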
Conditions: HEK293 cAMP-luciferase reporter cells, luminescence, 24 h; at 38.3 µM (top of the series)
From the text: The overall goal of this project was to develop a novel assay for discovering small molecule ligands for class B1 G protein-coupled receptors (GPCRs). Very few agonists (or inverse agonists) with generally weak activity for this entire group of physiologically important receptors are known to date. To establish proof-of-principle that this critical bottleneck can be overcome with a suitable screening approach, our studies focused on the class B1 receptor for glucagon-like peptide-1 (GLP-1R), a potential therapeutic target for diabetes and neurodegenerative disease.
The assay was developed using a cell-based functional readout. Toward this goal, stably transfected HEK293 cell clones were established that co-express (i) a cAMP-responsive luciferase reporter gene, and (ii) constitutively active GLP-1R that upon ligand interaction inhibit (inverse agonists) the luciferase activity. In addition, two control cell lines were developed: (i) one that express only the cAMP-responsive reporter gene to enable initial exclusion of GLP-1R independent effects of candidate probes; and (ii) one with the reported gene cloned with another constitutively active orphan receptor GPR119 to enable exclusion of GLP-1R independent inhibitor effects of candidate inverse agonists.
To that end, this assay was optimized for 1536-well format and screened against the MLSMR. Then the same collection was run in this cytotoxicity assay where inhibition was the undesired outcome.
NIH Molecular Libraries Probe Production Network [MLPCN]
NIH Chemical Genomics Center [NCGC]
PI Name: Martin Beinborn, Tufts Medical Center
Six ul of cell suspension (200 cells/uL in DMEM + 10% Nu serum + 1% pen-strep) is dispensed in a white solid 1536-well plate. The plates are incubated for 12 hours at 37 deg C at 5% CO2 followed by addition of 23 nL compounds. After 24 hr incubation at 37 deg C and 5% CO2, 3 uL of luciferase assay detection reagent is added. A luminescence read is obtained on the PerkinElmer Viewlux after 12 min incubation at room temperature.
% is set by controls: 0 for no effect and ±100 for the full control effect.

| Compound | activity change, negative = inhibition |
| --- | --- |
| CC(C)(C)n1nnnc1C(c1cccc2ccccc12)N1CCC(n2c(=O)[nH]c3ccccc32)CC1 (stereo not drawn) | inactive: -0.945% |
| c1ccc(CN2CCC(Nc3ccccc3)CC2)cc1 | inactive: -19.8% |
| O=c1[nH]c2ccccc2n1C1CCN(C(c2ccccc2)c2nnnn2C2CCCC2)CC1 (stereo not drawn) | inactive: -7.42% |
| O=C(NCC1(N2CCOCC2)CCCCC1)c1ccccc1 | inactive: -1.18% |
| CN(C)C1(CNC(=O)c2cccc(C#N)c2)CCCCC1 | inactive: -12.9% |
| CCOC(=O)C(CC)C1=NC(C)(C)Cc2ccccc21.O=[N+]([O-])c1cc([N+](=O)[O-])c(O)c([N+](=O)[O-])c1 (stereo not drawn) | inactive: -14.8% |
| O=C(NCC1(N2CCOCC2)CCCCC1)c1ccc([N+](=O)[O-])cc1 | inactive: -1.72% |
| CC(C)(C)OC(=O)N1CCC(N(C(=O)c2ccccc2)c2ccc(Cl)cc2)CC1 | inactive: -9.85% |
| O=C(NCC1(N2CCOCC2)CCCCC1)c1ccccc1[N+](=O)[O-] | inactive: -7.28% |
| N#Cc1ccc(C(=O)NCC2(N3CCCCC3)CCCCC2)cc1 | inactive: 2.52% |
| CCCCn1nnnc1C(c1cccc(OC)c1OC)N1CCC(n2c(=O)[nH]c3ccccc32)CC1 (stereo not drawn) | inactive: -27% |
| O=C(OC1CN2CCC1CC2)C1c2ccccc2C=Cc2ccccc21 (stereo not drawn) | inactive: -17.5% |
| O=C(O)c1cccc(Nc2c([N+](=O)[O-])cc([N+](=O)[O-])cc2[N+](=O)[O-])c1 | inactive: -62% |
| O=c1[nH]c2ccccc2n1C1CCN(C(c2cccs2)c2nnnn2C2CCCC2)CC1 (stereo not drawn) | inactive: -20.7% |
| N/C(=N\O)c1c(N)no[n+]1[O-] | inactive: -13.3% |
| CCOC(=O)N1CCC(Nc2ccc(C)cc2)CC1 | inactive: 6.05% |
| COc1cccc(C(c2nnnn2C(C)(C)C)N2CCC(n3c(=O)[nH]c4ccccc43)CC2)c1OC (stereo not drawn) | inactive: -11.7% |
| COc1ccc(C(=O)NCC2(N3CCOCC3)CCCCC2)cc1OC | inactive: 14.5% |
| O=c1[nH]c2ccccc2n1C1CCN(C(c2ccnc3ccccc23)c2nnnn2C2CCCC2)CC1 (stereo not drawn) | inactive: -11.8% |
| O=c1[nH]c2ccccc2n1C1CCN(C(c2cccs2)c2nnnn2C2CCCCC2)CC1 (stereo not drawn) | inactive: -23.4% |
| O=C(NCC1(N2CCOCC2)CCCCC1)c1cc(Br)ccc1Cl | inactive: -0.724% |
| CCCCn1nnnc1C(c1ccccc1)N1CCC(n2c(=O)[nH]c3ccccc32)CC1 (stereo not drawn) | inactive: -17.9% |
| COc1cc(C(=O)NCC2(N3CCOCC3)CCCCC2)cc(OC)c1C | inactive: -4.39% |
| CN1CCC(Nc2ccc(Cl)cc2)CC1 | inactive: -8.45% |

| Compound | activity change, negative = inhibition |
| --- | --- |
| CCC(CO)(C(=O)OC1CN2CCC1CC2)c1ccccc1 (stereo not drawn) | inactive: 18.4% |
| COc1cccc(C(=O)N(c2cc(C)cc(C)c2)C2CCN(C(=O)OC(C)(C)C)CC2)c1 | inactive: -3.99% |
| COc1cc(C(=O)NCC2(N3CCOCC3)CCCCC2)cc(OC)c1OC | inactive: -7.97% |
| COc1cccc(C(c2nnnn2C2CCCC2)N2CCC(n3c(=O)[nH]c4ccccc43)CC2)c1OC (stereo not drawn) | inactive: -22.9% |
| COc1cc(OC)cc(C(=O)NCC2(N3CCOCC3)CCCCC2)c1 | inactive: -9.92% |
| O=c1[nH]c2ccccc2n1C1CCN(C(c2cc3ccccc3o2)c2nnnn2C2CCCC2)CC1 (stereo not drawn) | inactive: -19.2% |
| CCCOc1ccc(C(=O)NCC2(N(C)C)CCCCC2)cc1 | inactive: 1.84% |
| CC(C)(C)OC(=O)N1CCC(Nc2ccccc2)CC1 | inactive: 18.1% |
| NN(c1ccccc1)C1CCN(CCc2ccccc2)CC1 | inactive: -13.8% |
| O=C(O)C1(Nc2ccccc2)CCN(Cc2ccccc2)CC1 | inactive: -14.2% |
| CCOc1ncccc1C(=O)NCC1(N2CCOCC2)CCCCC1 | inactive: -3.86% |
| CN1CCC(Nc2ccc(F)c(Cl)c2)CC1 | inactive: 0.183% |
| O=C(NCC1(N2CCCCC2)CCCCC1)c1ccco1 | inactive: -1.65% |
| CC(C)(C)c1ccc(C(=O)NCC2(N3CCOCC3)CCCCC2)cc1 | inactive: -3.65% |
| CN(C)c1ccc(C(=O)NCC2(N3CCCCC3)CCCCC2)cc1 | inactive: 1.17% |
| Cn1c(=O)[nH]cc(N(CCCl)CCCl)c1=O | inactive: -4.42% |
| Cc1ccccc1C(=O)NCC1(N(C)C)CCCCC1 | inactive: 3.22% |
| Cc1ccccc1NC1(C#N)CCN(Cc2ccccc2)CC1 | inactive: -12.4% |
| COc1ccc(C(c2nnnn2C2CCCCC2)N2CCC(n3c(=O)[nH]c4ccccc43)CC2)cc1 (stereo not drawn) | inactive: 0.617% |
| CCN1CCC(Nc2cccc(F)c2)CC1 | inactive: -14% |
| CC(C)(C)n1nnnc1C(c1ccnc2ccccc12)N1CCC(n2c(=O)[nH]c3ccccc32)CC1 (stereo not drawn) | inactive: -9.33% |
| Cc1ccc(NC2(C#N)CCN(Cc3ccccc3)CC2)cc1 | inactive: 2.57% |
| Cc1ccc(C(=O)NCC2(N3CCCCC3)CCCCC2)o1 | inactive: -22.7% |
| Fc1ccccc1NC1CCN(Cc2ccccc2)CC1 | inactive: 9% |

| Compound | activity change, negative = inhibition |
| --- | --- |
| COc1cc(OC)cc(C(=O)NCC2(N3CCCCC3)CCCCC2)c1 | inactive: 2.12% |
| O=c1[nH]c2ccccc2n1C1CCN(C(c2ccnc3ccccc23)c2nnnn2C2CCCCC2)CC1 (stereo not drawn) | inactive: -1.49% |
| COc1cccc(C(c2nnnn2C2CCCCC2)N2CCC(n3c(=O)[nH]c4ccccc43)CC2)c1OC (stereo not drawn) | inactive: -29.5% |
| CN(C)C1(CNC(=O)c2ccc(C(C)(C)C)cc2)CCCCC1 | inactive: 0.508% |
| CC(=O)N(c1ccccc1)C1CCNCC1 | inactive: -5.64% |
| CCC(c1nnnn1C1CCCCC1)N1CCC(n2c(=O)[nH]c3ccccc32)CC1 (stereo not drawn) | inactive: -17.9% |
| O=c1[nH]c2ccccc2n1C1CCN(C(c2cccc3ccccc23)c2nnnn2C2CCCC2)CC1 (stereo not drawn) | inactive: -11.9% |
| CCOC(=O)N1CCC(Nc2cccc(C)c2)CC1 | inactive: 3.67% |
| COc1cc(C(=O)NCC2(N(C)C)CCCCC2)ccc1OC(F)F | inactive: -7.3% |
| O=c1[nH]c2ccccc2n1C1CCN(C(c2ccccc2)c2nnnn2C2CCCCC2)CC1 (stereo not drawn) | inactive: -0.57% |
| CCCCOc1ccc(C(=O)NCC2(N3CCOCC3)CCCCC2)cc1 | inactive: -2.37% |
| O=P1(N(CCCl)CCCl)SCCCS1 | inactive: 8.02% |
| O=C(NCC1(N2CCCCC2)CCCCC1)c1ccc(F)cc1 | inactive: 0.398% |
| CCOC(=O)N1CCC(Nc2ccc(F)cc2)CC1 | inactive: -8.62% |
| COc1ccc(NC2CCN(CCc3ccccc3)CC2)c(OC)c1 | inactive: -6.3% |
| COc1ccccc1C(=O)NCC1(N2CCOCC2)CCCCC1 | inactive: 0.59% |
| CCOc1ccc(C)cc1CN(CCCl)CCCl | inactive: 4.58% |
| CC(C)(C)n1nnnc1C(c1ccccc1)N1CCC(n2c(=O)[nH]c3ccccc32)CC1 (stereo not drawn) | inactive: 1.11% |
| O=C(NCC1(N2CCOCC2)CCCCC1)c1ccc(Cl)cc1 | inactive: 2.89% |
| O=C1CCN(Cc2ccccc2)CC1 | inactive: 2.08% |
| CCOC(=O)N1CCC(Nc2ccc(OC)cc2)CC1 | inactive: 0.142% |
| CCCCn1nnnc1C(c1ccc(OC)cc1)N1CCC(n2c(=O)[nH]c3ccccc32)CC1 (stereo not drawn) | inactive: -10% |
| N#CC1(Nc2ccccc2)CCN(Cc2ccccc2)CC1 | inactive: 6.44% |
| O=c1[nH]c2ccccc2n1C1CCN(C(c2cc3ccccc3o2)c2nnnn2C2CCCCC2)CC1 (stereo not drawn) | inactive: -5.83% |

| Compound | activity change, negative = inhibition |
| --- | --- |
| COc1ccc(Cl)cc1C(=O)NCC1(N2CCOCC2)CCCCC1 | inactive: 2.24% |
| O=C1C(O)=C([N+](=O)[O-])C(=O)C(O)=C1[N+](=O)[O-] | inactive: -0.86% |
| O=C(NCC1(N2CCOCC2)CCCCC1)c1cc2ccccc2o1 | inactive: -11.8% |
| O=C(NCC1(N2CCCCC2)CCCCC1)c1ccc(Cl)nc1 | inactive: -4.55% |
| O=c1[nH]c2ccccc2n1C1CCN(C(c2ccccc2OC(F)(F)F)c2nnnn2C2CCCCC2)CC1 (stereo not drawn) | inactive: 3.93% |
| Cc1cc(C)cc(N(C(=O)c2ccccc2)C2CCN(C(=O)OC(C)(C)C)CC2)c1 | inactive: -4.04% |
| CSc1ccccc1C(=O)NCC1(N2CCCCC2)CCCCC1 | inactive: -0.57% |
| Cc1cccc(NC2(C#N)CCN(Cc3ccccc3)CC2)c1 | inactive: -0.452% |
| O=C(NCC1(N2CCCCC2)CCCCC1)c1ccc(=O)[nH]c1 | inactive: -7.71% |
| CCCCn1nnnc1C(CC)N1CCC(n2c(=O)[nH]c3ccccc32)CC1 (stereo not drawn) | inactive: -3.88% |
| O=C(NCC1(N2CCCCC2)CCCCC1)c1cccs1 | inactive: -5.33% |
| CCCCn1nnnc1C(c1cccs1)N1CCC(n2c(=O)[nH]c3ccccc32)CC1 (stereo not drawn) | inactive: -24.3% |
| COc1ccc(C(=O)NCC2(N3CCCCC3)CCCCC2)cc1 | inactive: 5.98% |
| COc1ccc(C(=O)NCC2(N3CCCCC3)CCCCC2)c(OC)c1OC | inactive: 5.63% |
| CC(C)(C)OC(=O)N1CCC(N(C(=O)c2ccccc2)c2ccc(F)cc2)CC1 | inactive: -7.63% |
| CCC(c1nnnn1C1CCCC1)N1CCC(n2c(=O)[nH]c3ccccc32)CC1 (stereo not drawn) | inactive: 2.53% |
| CCCCOc1ccccc1C(=O)NCC1(N2CCOCC2)CCCCC1 | inactive: -9.39% |
| Cc1ccc(C(=O)NCC2(N(C)C)CCCCC2)o1 | inactive: 5.95% |
| O=C(NCC1(N2CCOCC2)CCCCC1)c1ccccc1Br | inactive: -12.9% |
| CCCOc1ccc(C(=O)NCC2(N(C)C)CCCCC2)cc1OC | inactive: 19.6% |
| COc1ccc(C(c2nnnn2C2CCCC2)N2CCC(n3c(=O)[nH]c4ccccc43)CC2)cc1 (stereo not drawn) | inactive: -16.1% |
